Earlier results on one substance are cited in patent publication US7429374B2, “Process for the measurement of the potency of glatiramer acetate” (Teva Pharmaceutical Industries, Ltd., priority 2001, dated 2008).

This data set relates to albumin and other serum proteins. As to conditions: previous studies; cited from earlier work.

Turning to “L-glutamic acid polymer with L-alanine, L-lysine and L-tyrosine, acetate (salt) [GA]”, the “binding to serum proteins” value was “binds to albumin and to other serum proteins”.
